Measurements taken from patent publication US20080064871A1, “Production Method of Nitrogen-Containing Fused Ring Compounds” (Japan Tobacco Inc., priority 2006, published 2008).

Sequences of proteins named here, by UniProt entry; tags and fusion partners are left off.
UniProt Q96S37, whole entry: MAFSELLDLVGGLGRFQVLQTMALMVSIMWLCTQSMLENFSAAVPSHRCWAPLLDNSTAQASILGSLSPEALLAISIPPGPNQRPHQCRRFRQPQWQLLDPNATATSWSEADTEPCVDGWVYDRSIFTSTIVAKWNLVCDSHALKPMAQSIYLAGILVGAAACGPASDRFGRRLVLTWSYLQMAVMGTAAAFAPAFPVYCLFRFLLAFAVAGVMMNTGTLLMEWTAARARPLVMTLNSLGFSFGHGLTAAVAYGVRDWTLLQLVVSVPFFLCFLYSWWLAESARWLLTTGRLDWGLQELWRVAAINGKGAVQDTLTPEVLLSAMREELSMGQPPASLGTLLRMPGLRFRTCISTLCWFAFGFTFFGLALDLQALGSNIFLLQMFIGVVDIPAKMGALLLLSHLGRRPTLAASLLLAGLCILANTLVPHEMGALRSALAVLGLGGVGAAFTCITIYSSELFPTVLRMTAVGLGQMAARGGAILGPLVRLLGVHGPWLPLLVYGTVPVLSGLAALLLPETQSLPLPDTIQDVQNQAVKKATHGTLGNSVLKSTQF
UniProt P11712, whole entry: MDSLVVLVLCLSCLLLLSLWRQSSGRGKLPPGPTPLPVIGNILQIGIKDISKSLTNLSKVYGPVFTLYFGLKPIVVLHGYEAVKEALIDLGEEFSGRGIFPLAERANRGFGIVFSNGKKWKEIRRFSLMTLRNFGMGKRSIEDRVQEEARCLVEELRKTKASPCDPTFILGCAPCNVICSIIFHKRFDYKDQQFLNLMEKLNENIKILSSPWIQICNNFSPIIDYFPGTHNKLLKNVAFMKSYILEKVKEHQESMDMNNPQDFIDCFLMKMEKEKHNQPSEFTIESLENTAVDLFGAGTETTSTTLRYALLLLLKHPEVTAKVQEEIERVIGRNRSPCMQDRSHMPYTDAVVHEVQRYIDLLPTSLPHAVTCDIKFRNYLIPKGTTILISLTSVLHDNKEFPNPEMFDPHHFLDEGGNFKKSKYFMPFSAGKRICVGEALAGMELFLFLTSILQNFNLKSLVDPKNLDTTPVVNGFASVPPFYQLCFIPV

target: human URAT1 (Homo sapiens, UniProt Q96S37); test: Uric acid transport inhibitory test using human URAT1-expressing cells; conditions: read-out: hURAT1 (IC50, concentration necessary for inhibiting the uric acid transport rate by 50%); human URAT1 expressing HEK293 cells, uptake of 14C-labeled uric acid for 5 min, room temperature
From the text: Reference Experimental Example 1 Uric Acid Transport Inhibitory Test Using Human Urat1-Expressing Cells
Human URAT1 full length cDNA was subcloned to expression vector pcDNA3.1 and human URAT1 gene was transfected into human embryonic kidney derived cell line (HEK293 cells) by liposome method using Lipofectamine2000. Simultaneously, HEK293 cells transfected with expression vector pcDNA3.1 alone (hereinafter mock cells) were also produced. HEK293 cells expressing human URAT1 gene or mock cells were selected with geneticin resistance as an index. The functional expression of human URAT1 gene was confirmed by a method similar to the following method, using transport of uric acid labeled with ^14C into the cells as an index.
Human URAT1 expressing HEK293 cells or mock cells were cultured in Dulbecco's modified Eagle's MEM medium (high glucose) containing 10% fetal bovine serum, 0.5 mg/mL geneticin sulfate, 100 units/mL penicillin and 100 μg/mL streptomycin under the conditions of 37° C. and 5% CO2 in an incubator. […]
After the medium was removed by aspiration from each well, the cells were washed once with Hank's Balanced Salt Solution (HBSS) and preincubated with HBSS ([…]/well) for 5 min. […] The cells were lysed by stirring and the radioactivity of each well was measured in a liquid scintillation counter (TOP COUNT, Packard). […]

Question: For `Nc1c(Cl)cc(C(=O)N2CCOc3ccccc32)cc1Cl`, which IC50 is on record?
Answer: 0.1 to 1 µM

target: CYP2C9 (Homo sapiens, UniProt P11712); test: CYP inhibitory test using human liver microsome; conditions: read-out: CYP2C9 inhibition IC50, model substrate diclofenac, 37° C. 10 min, LC/MS/MS
Protocol: Reference Experimental Example 2 Cyp Inhibitory Test Using Human Liver Microsome
Human liver microsome (20 mg protein/mL, 5 μL, Xenotech LLC, purchased from Lenexa Kans.) was suspended in 100 mM potassium phosphate buffer (70 μL, pH 7.4), mixed with a solution (0.5 μL) of the Example compound dissolved in DMSO and preincubated at 37° C. for 5 min. NADPH producing system coenzyme solution (β-nicotinamide adenine dinucleotide phosphate: 5.2 mM, D-glucose-6-phosphate: 13.2 mM, magnesium chloride: 13.2 mM, glucose-6-phosphate dehydrogenase: 1.8 U/mL) 25 μL, and a model substrate (CYP3A4: midazolam 1 mM, CYP2D6: bufuralol 1 mM, CYP2C9: diclofenac 2 mM) 0.5 μL dissolved in DMSO were added to start the reaction. After incubation at 37° C. for 10 min., acetonitrile (200 μL) containing an internal standard substance (propranolol 1 μM) was added and the mixture was centrifuged (room temperature, 3000 rpm, 20 min). The amount of the metabolite produced from each model substrate in the supernatant was measured by high performance liquid chromatography/mass spectrometry (LC/MS/MS) and each CYP enzyme activity was determined. The concentration showing 50% inhibition (IC50) was calculated relative to the enzyme activity without addition of Example compound (DMSO 0.5 μL added) as 100%.

Question: For `O=C(O)c1ccccc1C(=O)N1CCOc2ccccc21`, which IC50 is on record?
Answer: > 50 µM

Question: `O=C(O)c1ccc(C(=O)N2CCOc3ccccc32)cc1` was tested. Which IC50 did it give?
Answer: > 50 µM

Question: How did the IC50 turn out when `COC(=O)c1ccc(C(=O)N2CCOc3ccccc32)cc1` was run?
Answer: > 50 µM

Question: For `O=C(c1ccc([N+](=O)[O-])cc1)N1CCOc2ccccc21`, which IC50 is on record?
Answer: > 50 µM

Question: Which IC50 does the source give for `O=C(O)c1cccc(C(=O)N2CCOc3ccccc32)c1` here?
Answer: > 50 µM

Question: For `O=C(c1cc(Cl)nc(Cl)c1)N1CCOc2ccccc21`, which IC50 is on record?
Answer: > 50 µM

Question: `COC(=O)c1cccc(C(=O)N2CCOc3ccccc32)c1` was tested. Which IC50 did it give?
Answer: > 50 µM

Question: With `O=C(c1cc(Cl)cc(Cl)c1)N1CCOc2ccccc21` as the compound, how does the IC50 read?
Answer: > 50 µM
